Data published in patent publication US8846929B2, “Substituted-quinoxaline-type piperidine compounds and the uses thereof” (priority 2007, dated 2014).

By UniProt entry, the sequences of proteins in these tests, tags left out. Where a name states a change or a piece, a line headed by the entry shows the natural chain unless it says otherwise.
UniProt Q12809: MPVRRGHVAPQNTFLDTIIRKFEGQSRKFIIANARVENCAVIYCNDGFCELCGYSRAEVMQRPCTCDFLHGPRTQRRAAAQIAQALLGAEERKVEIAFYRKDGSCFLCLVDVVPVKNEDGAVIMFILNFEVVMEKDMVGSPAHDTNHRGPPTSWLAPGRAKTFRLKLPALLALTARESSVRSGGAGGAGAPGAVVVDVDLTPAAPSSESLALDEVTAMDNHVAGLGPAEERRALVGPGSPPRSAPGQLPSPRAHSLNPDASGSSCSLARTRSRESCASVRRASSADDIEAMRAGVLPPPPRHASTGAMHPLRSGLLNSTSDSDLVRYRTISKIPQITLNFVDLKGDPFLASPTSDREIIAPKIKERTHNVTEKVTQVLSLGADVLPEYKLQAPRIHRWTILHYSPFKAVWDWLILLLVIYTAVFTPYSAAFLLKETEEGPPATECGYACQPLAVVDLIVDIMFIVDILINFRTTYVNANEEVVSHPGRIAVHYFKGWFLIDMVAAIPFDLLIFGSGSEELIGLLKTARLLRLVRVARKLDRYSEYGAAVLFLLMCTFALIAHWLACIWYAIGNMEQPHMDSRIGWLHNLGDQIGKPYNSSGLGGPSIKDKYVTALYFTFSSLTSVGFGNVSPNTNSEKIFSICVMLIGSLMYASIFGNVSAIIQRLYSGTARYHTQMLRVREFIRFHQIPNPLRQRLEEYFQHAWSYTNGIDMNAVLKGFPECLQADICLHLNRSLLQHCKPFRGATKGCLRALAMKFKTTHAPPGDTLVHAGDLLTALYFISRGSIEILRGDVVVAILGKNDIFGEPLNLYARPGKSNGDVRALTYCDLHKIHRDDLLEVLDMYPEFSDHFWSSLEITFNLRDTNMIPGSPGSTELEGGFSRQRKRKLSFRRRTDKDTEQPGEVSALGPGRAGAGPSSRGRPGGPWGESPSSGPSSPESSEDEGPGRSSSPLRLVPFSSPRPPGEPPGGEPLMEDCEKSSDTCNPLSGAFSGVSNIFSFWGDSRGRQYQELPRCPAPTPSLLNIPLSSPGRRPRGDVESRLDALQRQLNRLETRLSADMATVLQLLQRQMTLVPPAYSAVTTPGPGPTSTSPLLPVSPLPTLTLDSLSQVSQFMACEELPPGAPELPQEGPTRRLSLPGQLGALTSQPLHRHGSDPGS
UniProt P41145: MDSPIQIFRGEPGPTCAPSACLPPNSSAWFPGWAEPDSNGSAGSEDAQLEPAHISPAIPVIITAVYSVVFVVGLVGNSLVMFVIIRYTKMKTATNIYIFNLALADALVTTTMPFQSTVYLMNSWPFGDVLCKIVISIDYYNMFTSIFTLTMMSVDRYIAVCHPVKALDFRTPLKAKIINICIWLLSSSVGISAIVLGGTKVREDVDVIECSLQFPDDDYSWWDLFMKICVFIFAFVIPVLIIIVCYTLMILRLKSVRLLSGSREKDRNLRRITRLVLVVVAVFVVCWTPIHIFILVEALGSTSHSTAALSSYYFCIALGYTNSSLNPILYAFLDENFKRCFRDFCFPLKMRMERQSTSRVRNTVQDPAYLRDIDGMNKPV
UniProt P35372: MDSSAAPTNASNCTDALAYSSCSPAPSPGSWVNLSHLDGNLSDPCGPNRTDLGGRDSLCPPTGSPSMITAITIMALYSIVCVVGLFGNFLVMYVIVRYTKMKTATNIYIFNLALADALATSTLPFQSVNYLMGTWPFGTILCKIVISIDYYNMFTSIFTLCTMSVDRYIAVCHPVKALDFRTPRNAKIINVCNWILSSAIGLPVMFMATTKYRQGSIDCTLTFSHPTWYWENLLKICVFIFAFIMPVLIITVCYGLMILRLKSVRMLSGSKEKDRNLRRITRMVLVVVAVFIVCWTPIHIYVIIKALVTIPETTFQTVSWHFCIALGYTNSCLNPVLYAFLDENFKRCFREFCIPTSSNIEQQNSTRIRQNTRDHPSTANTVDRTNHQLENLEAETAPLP
UniProt P41146: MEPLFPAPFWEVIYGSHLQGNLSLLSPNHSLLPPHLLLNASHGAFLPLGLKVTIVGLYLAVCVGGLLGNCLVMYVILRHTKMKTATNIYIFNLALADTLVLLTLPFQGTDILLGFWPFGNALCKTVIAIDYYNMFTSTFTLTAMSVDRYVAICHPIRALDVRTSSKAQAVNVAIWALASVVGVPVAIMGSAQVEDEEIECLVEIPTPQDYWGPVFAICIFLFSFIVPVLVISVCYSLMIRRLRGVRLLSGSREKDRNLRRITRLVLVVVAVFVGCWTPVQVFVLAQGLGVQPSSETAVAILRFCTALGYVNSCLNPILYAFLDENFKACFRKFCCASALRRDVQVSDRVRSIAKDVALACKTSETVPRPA
UniProt P41143: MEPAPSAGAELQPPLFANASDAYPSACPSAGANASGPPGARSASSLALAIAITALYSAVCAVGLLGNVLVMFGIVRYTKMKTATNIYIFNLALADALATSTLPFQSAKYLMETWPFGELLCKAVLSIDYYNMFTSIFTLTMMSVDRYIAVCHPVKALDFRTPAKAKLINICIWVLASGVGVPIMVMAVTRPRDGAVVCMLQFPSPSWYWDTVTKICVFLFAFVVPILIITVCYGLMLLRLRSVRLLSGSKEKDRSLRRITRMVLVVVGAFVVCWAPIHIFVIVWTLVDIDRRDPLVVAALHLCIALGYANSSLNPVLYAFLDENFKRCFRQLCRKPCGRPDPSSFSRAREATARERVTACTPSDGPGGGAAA

What was measured:
[1] = Abnormal behavioral side effects (sedation, hyperactivity, hypoactivity); settings: in vivo
[2] = test system: FCA-induced inflammation of the rat hind paw; assay: Freund's complete adjuvant (FCA) model of inflammatory pain; type: in vivo
[3] = molecular target: HERG channels (Homo sapiens (Human), UniProt Q12809); assay: In vitro hERG (human ether a-go-go gene) assay
[4] = test system: guinea pig purkinje fibers; assay: APD (action potential duration) in guinea pig purkinje fibers
[5] = molecular target: T1, kappa opioid receptor (Homo sapiens (Human), UniProt P41145); assay: In vitro kappa-opioid receptor [35S]GTPγS functional assay; type: biochemical; settings: mean ± SEM
[6] = molecular target: T2, μ-opioid receptor (Homo sapiens (Human), UniProt P35372); assay: In vitro mu-opioid receptor [35S]GTPγS functional assay; settings: mean ± SEM
[7] = molecular target: T1, kappa opioid receptor; assay: In vitro kappa-opioid receptor binding assay ([3H]-U69,593 displacement); settings: read-out: Ki [Average ± Std Deviation] Opioid Receptor Kappa; membranes from recombinant HEK-293 cells
[8] = molecular target: T3, human opioid receptor-like (ORL-1) (Homo sapiens (Human), UniProt P41146); assay: In vitro ORL-1 receptor [35S]GTPγS functional assay; type: biochemical; settings: mean ± SEM
[9] = molecular target: delta opioid receptor (Homo sapiens (Human), UniProt P41143); assay: In vitro delta-opioid receptor binding assay ([3H]-Naltrindole displacement); settings: read-out: Ki [Average ± Std Deviation] Opioid Receptor Delta; recombinant receptor expressed in CHO-K1 cells
[10] = molecular target: T3, human opioid receptor-like (ORL-1); assay: In vitro ORL-1 receptor binding assay ([3H]-nociceptin displacement); settings: read-out: Ki [Average ± Std Deviation] ORL-1; membranes from recombinant HEK-293 cells
[11] = molecular target: T2, μ-opioid receptor; assay: In vitro mu-opioid receptor binding assay ([3H]-diprenorphine displacement); settings: read-out: Ki [Average ± Std Deviation] Opioid Receptor Mu

## O=C(O)c1nc2ccccc2n([C@H]2C[C@H]3CC[C@@H](C2)N3C2CCCCCCCCCC2)c1=O [listing 1 of 2 here]
[1]
  abnormal behavioral side effects, such as sedation, hyperactivity and/or hypoactivity: reduced abnormal behavioral side effects

## O=C(O)c1nc2ccccc2n([C@H]2C[C@H]3CC[C@@H](C2)N3C2CCCCCCC2)c1=O
[2]; 1 hour after administration
  ED50 value for reversal of thermal hyperalgesia: 8.5 mg/kg
[2]; 3 hours after administration
  ED50 value for reversal of thermal hyperalgesia: 4.0 mg/kg
[2]; 5 hours after administration
  ED50 value for reversal of thermal hyperalgesia: 7.8 mg/kg
[2]; at 3 hours after administration
  maximum % reversal of thermal hyperalgesia: about 80%

## O=C(O)c1nc2ccccc2n([C@H]2C[C@H]3CC[C@@H](C2)N3C2CCCCCCCCCC2)c1=O [listing 2 of 2 here]
[2]; 5 mg/kg dose, 1 hour after administration
  % reversal of thermal hyperalgesia: 34%
[2]; 5 mg/kg dose, 3 hours after administration
  % reversal of thermal hyperalgesia: 46%
[2]; 5 mg/kg dose, 5 hours after administration
  % reversal of thermal hyperalgesia: 79%

## 4-((endo)-9-((exo)-bicyclo[3.3.1]nonan-3-yl)-9-azabicyclo[3.3.1]nonan-3-yl)-3-oxo-3,4-dihydroquinoxaline-2-carboxylic acid
[3]
  cardiovascular side effects: reduced cardiovascular side effects
[2]; 3 mg/kg dose, 1 hour after administration
  % reversal of thermal hyperalgesia: 86%
[2]; 3 mg/kg dose, 3 hours after administration
  % reversal of thermal hyperalgesia: 51%
[2]; 3 mg/kg dose, 5 hours after administration
  % reversal of thermal hyperalgesia: 27%
[2]; 1 hour after administration
  ED50 value for reversal of thermal hyperalgesia: 0.8 mg/kg
[2]; 3 hours after administration
  ED50 value for reversal of thermal hyperalgesia: 1.5 mg/kg
[2]; 5 hours after administration
  ED50 value for reversal of thermal hyperalgesia: 3.0 mg/kg
[4]
  cardiovascular side effects: reduced cardiovascular side effects

## 4-((endo)-9-cyclooctyl-9-azabicyclo[3.3.1]nonan-3-yl)-3-oxo-3,4-dihydroquinoxaline-2-carboxylic acid
[5]
  GTPγS Opioid Receptor Kappa Emax: 3.7 ± 0.3%
[5]; read-out: GTPγS Opioid Receptor Kappa EC50
  EC50: 0.45 µM
[6]
  GTPγS Opioid Receptor Mu Emax: 11.0 ± 0.6%
[6]; read-out: GTPγS Opioid Receptor Mu EC50
  EC50: 3.92 µM
[7]
  Ki: 0.44 µM
[8]
  GTPγS ORL-1 Emax: 87.3 ± 5.0%
[8]; read-out: GTPγS ORL-1 EC50
  EC50: 0.114 µM
[2]; 1 hour after administration
  ED50 value for reversal of thermal hyperalgesia: 2.7 mg/kg
[2]; 3 hours after administration
  ED50 value for reversal of thermal hyperalgesia: 3.8 mg/kg
[2]; 5 hours after administration
  ED50 value for reversal of thermal hyperalgesia: 2.3 mg/kg
[9]
  Ki: 10.9 µM
[10]
  Ki: 0.0177 µM
[11]
  Ki: 0.679 µM
